Compound activity deposited in PubChem by Broad Institute.
The list is not random: actives were taken first. Their share in the collection is about 1.8%.
DENV2 CPE rescue – inhibitors of DENV2 cytopathic effect, primary screen, cell-based, plate reader, single concentration; DENV2-infected cells, cytopathic effect rescue; hit rate 1.7% among 350,000; AID 651640, 2012; CPE inhibition, % at 9.99 µM; in the data active = CPE inhibition above about 20%, passing the limit was not always enough; tested in BHK-21 cells;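 also: 0% = median of neutral control wells and 100% = median of positive control wells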
UUG fidelity – alters start codon recognition fidelity in yeast | S. cerevisiae UUG-firefly luciferase reporter, luminescence/redox ratio | activity score, % at 18.7 µM | 350,000 compounds, 0.13% hits | AID 602363;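 active = replicate mean at a twofold rise or more, about +100% in these data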;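 note: firefly luciferase made from a UUG start codon reports start codon fidelity; reporter light over untreated wells divided by growth signal over untreated wells; some hits fall short of that in this replicate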
E-sel inducer – E-selectin induction in HUVECs, primary screen, imaging, HUVEC, immunofluorescence imaging, single point; P16581; normalized: neutral wells 0, TNF-alpha wells 100; activation, % at 7.58 µM; hit rate 0.37% among 260,000;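 active = mean E-selectin-positive cell signal at least 10% of the positive control, reached in at least 60% of replicates, without over 20% cell loss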
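Test system: HUVEC; input: 3,000 HUVEC/well; measured by: immunofluorescence imaging; read-out: % PE-positive cells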
Cneo AK release – Cryptococcus neoformans cell lysis inducers, primary screen, AK release luminescence, single concentration. C. neoformans lysis, adenylate kinase release luminescence, 4 h; normalised: neutral wells 0, clomiphene wells 100. lysis activity, % at 15 µM. hit rate 0.2% among 360,000. AID 651654, 2012;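 active = mean lysis activity across replicates of at least 80%, whatever share of replicates individually reach that level; inactive = mean lysis activity below 80%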
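Assay system: Cryptococcus neoformans yeast cells / Dosing: single-point compound dose / Timing: 4 h at 37 °C static, read 1 h later / Measured by: luminescence of released adenylate kinase using an AK detection reagent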
Starred values were filed as active, the others as inactive; / = not tested or not shown.

SMILES | DENV2 CPE rescue | UUG fidelity | E-sel inducer | Cneo AK release
C[C@H](NC(=O)C[C@H]1CC[C@@H](NC(=O)Cc2ccccn2)[C@@H](CO)O1)c1ccccc1 | 11.1 | -5.4 | 0.2 | 96.3*
O=C(CN1CCOCC1)NCC[C@@H]1CC[C@H](NC(=O)Cc2ccccn2)[C@@H](CO)O1 | 22.6* | 1.5 | -0.1 | -0.4
CO[C@H]1CN(C)C(=O)c2ccc(NC(=O)C3CCC3)cc2OC[C@H](C)N(CC2CCCCC2)C[C@H]1C | / | / | 0.1 | /
CC(C)NC(=O)Nc1ccc2c(c1)C(=O)N([C@@H](C)CO)C[C@@H](C)[C@@H](CN(C)S(=O)(=O)c1cccs1)OCCCC[C@H](C)O2 | 1.9 | -9.5 | / | -5.3
C[C@H]1CCCCO[C@@H](CN(C)C(=O)Nc2ccccc2)[C@@H](C)CN([C@@H](C)CO)C(=O)c2cc(NS(=O)(=O)c3cn(C)cn3)ccc2O1 | -4.4 | -0.4 | -0.2 | -9.6
O=c1cc(-c2cccc(F)c2)[nH]c2ccccc12 | 36.0* | -9.3 | 1.5 | 0.2
Cc1ccc2[nH]c(-c3cccc(F)c3)cc(=O)c2c1 | / | -20.7 | 0.1 | 3.1
CNC[C@H]1Oc2c(NC(=O)C3CCOCC3)cccc2C(=O)N([C@@H](C)CO)C[C@@H]1C | -5.2 | -9.0 | 0.3 | -4.6
CC1(C)CC(=O)C2=C(C1)NC(=O)NC2c1ccccc1Cl (centres undefined) | 4.0 | -5.1 | -0.2 | 10.6
CC1(C)CC(=O)C2=C(C1)NC(=O)NC2c1ccc(Cl)cc1 (centres undefined) | 22.6* | -4.6 | / | 11.3
CN1C(=O)c2cc(NC(=O)C3CCCC3)ccc2OC[C@H]2O[C@@H](CC(=O)NCC3CC3)CC[C@H]21 | -2.3 | 20.3 | 0.0 | 0.6
CC(C)NC(=O)Nc1ccc2c(c1)C(=O)N(C)[C@H]1CC[C@@H](CC(=O)NCC3CCCCC3)O[C@H]1CO2 | 35.0* | 26.7 | 0.1 | -16.0
CN1C(=O)c2cc(NC(=O)C3CCCC3)ccc2OC[C@H]2O[C@@H](CC(=O)NCC3CC3)CC[C@@H]21 | 32.4* | 8.6 | 0.2 | 0.9
CN1CCN(C(=O)C[C@H]2CC[C@@H]3[C@@H](COc4ccc(NC(=O)C5CCC5)cc4C(=O)N3C)O2)CC1 | 24.1* | / | 0.1 | /
COCC(=O)Nc1ccc2c(c1)C(=O)N(C)C[C@@H](OC)[C@@H](C)CN(C)[C@@H](C)CO2 | -5.7 | -4.1 | 0.0 | 1.6
Cc1noc(C)c1S(=O)(=O)N(C)C[C@@H]1OCCCC[C@@H](C)Oc2ccc(NC(=O)C3CCCCC3)cc2C(=O)N([C@H](C)CO)C[C@@H]1C | 0.8 | -0.5 | 0.1 | -4.2
C[C@H]1CN([C@@H](C)CO)C(=O)c2cc(NC(=O)CCN3CCOCC3)ccc2O[C@@H]1CN(C)Cc1ccc(-c2ccccc2)cc1 | -1.8 | / | -0.3 | 1.7
O=C(OCc1ccccc1)N1CCCC2CC1c1ccccc12 (centres undefined) | 43.8* | 4.7 | / | -2.6
O=C(OCc1ccccc1)N1CCC2CC1c1ccc(N3CCNCC3)cc12 (centres undefined) | 75.4* | -13.3 | -1.0 | -2.2
Cc1ccc(-c2cnc3c(c2)C(=O)N([C@@H](C)CO)C[C@H](C)[C@H](CN(C)C(=O)Cc2ccccc2)O3)cc1 | 0.0 | -1.3 | 0.2 | -1.7
COc1ccc(-c2nc3cc(C)c(Br)c(C)n3c2Cc2ccc(C)cc2)cc1OC | -0.7 | -11.1 | 0.0 | -3.0
COc1ccc(-c2nc3cc(C)c(Br)c(C)n3c2CC(C)(C)C)cc1OC | -8.6 | -8.3 | 177.4* | 1.8
Cc1ccc(-c2ccc3c(c2)O[C@@H](CN(C)C)[C@@H](C)CN([C@@H](C)CO)S3(=O)=O)cc1 | 17.2 | -7.2 | -0.2 | -3.5
CCN1C(=O)[C@H]2[C@@H](c3ccc(OC)cc3)N3C(=O)CN(CCOC)C(=O)[C@@]3(C)[C@H]2C1=O | 98.4* | -1.8 | -0.1 | 1.2

Profiles, quoted from the list. Screens in order: DENV2 CPE rescue	UUG fidelity	E-sel inducer	Cneo AK release
Results for `O=C(OCc1ccccc1)N1CCCC2CC1c1ccccc12` (centres undefined) → 43.8*	4.7	/	-2.6
Results for `O=C(OCc1ccccc1)N1CCC2CC1c1ccc(N3CCNCC3)cc12` (centres undefined) → 75.4*	-13.3	-1.0	-2.2
Results for `COc1ccc(-c2nc3cc(C)c(Br)c(C)n3c2CC(C)(C)C)cc1OC` → -8.6	-8.3	177.4*	1.8
Results for `Cc1ccc(-c2cnc3c(c2)C(=O)N([C@@H](C)CO)C[C@H](C)[C@H](CN(C)C(=O)Cc2ccccc2)O3)cc1` → 0.0	-1.3	0.2	-1.7
Results for `COc1ccc(-c2nc3cc(C)c(Br)c(C)n3c2Cc2ccc(C)cc2)cc1OC` → -0.7	-11.1	0.0	-3.0

Other records:
SMILES | DENV2 CPE rescue | UUG fidelity | E-sel inducer | Cneo AK release
CCN1C(=O)[C@H]2[C@@H](c3ccc(OC)cc3)N3C(=O)CN(Cc4ccccc4)C(=O)[C@@]3(Cc3ccccc3)[C@H]2C1=O | / | -6.2 | -0.2 | 50.0
O=[N+]([O-])c1ccc(OCCCCCN2CCOCC2)cc1 | 26.3* | -10.7 | 0.1 | -3.6
O=[N+]([O-])c1ccc(OCCCCN2CCCCC2)cc1 | / | -9.0 | 0.0 | -2.6
Cc1ccc(S(=O)(=O)Nc2ccc3c(c2)C(=O)N([C@@H](C)CO)C[C@H](C)[C@H](CN(C)S(=O)(=O)c2ccccc2)OCCCC[C@@H](C)O3)cc1 | -1.1 | -10.1 | -0.1 | -1.8
CCC(=O)N1[C@H](C(=O)Nc2ccccc2)[C@@H](CO)[C@@H]2Cn3c(ccc(-c4ccncc4)c3=O)[C@@H]21 | 0.8 | / | 0.0 | 99.0*
CCC(=O)N1[C@H](C(=O)Nc2nccs2)[C@@H](CO)[C@@H]2Cn3c(ccc(/C=C/c4ccccc4)c3=O)[C@@H]21 | 0.3 | / | 0.1 | 8.7
CC=Cc1ccc2n(c1=O)C[C@H]1[C@H](CO)[C@@H](C(=O)Nc3nccs3)N(C(=O)CC)[C@@H]21 (mixture of isomers) | 57.8* | / | 0.1 | -2.1
C[C@H](CO)N1C[C@H](C)[C@@H](CN(C)C(=O)c2ccncc2)Oc2ncc(C3=CCCCC3)cc2C1=O | 10.3 | 10.3 | 0.2 | -3.9
O=C(C[C@H]1CC[C@H](NC(=O)c2ccc3c(c2)OCO3)[C@H](CO)O1)NCc1ccc(Cl)cc1 | -6.7 | 3.4 | -0.5 | 0.8
C[C@@H]1CN([C@H](C)CO)C(=O)c2cccc(NC(=O)c3cnccn3)c2O[C@@H]1CN(C)C(=O)NC1CCCCC1 | / | / | 0.2 | /
Nc1nc(SCC(=O)Nc2ccc([N+](=O)[O-])cc2)[nH]c(=O)c1NC(=O)c1ccc(Br)o1 | 20.3* | -5.0 | 1.2 | 1.1
C[C@@H]1CCCCO[C@@H](CN(C)C(=O)Nc2ccc3c(c2)OCO3)[C@@H](C)CN([C@H](C)CO)C(=O)c2cc(NS(=O)(=O)c3ccc(Cl)cc3)ccc2O1 | -6.9 | -8.9 | 0.2 | 1.2
C[C@@H]1CCCCO[C@H](CN(C)C(=O)C2CCCCC2)[C@H](C)CN([C@H](C)CO)C(=O)c2cc(NS(=O)(=O)c3ccc(Cl)cc3)ccc2O1 | 38.6* | 3.0 | -0.1 | -2.3
C[C@@H]1CCCCO[C@H](CN(C)C(=O)C2CCCCC2)[C@@H](C)CN([C@H](C)CO)C(=O)c2cc(NS(=O)(=O)c3ccc(Cl)cc3)ccc2O1 | 3.4 | -5.7 | 0.0 | 11.9
